Experimental data taken from patent US12018016B2, “Aryl sulfonyl (hydroxy) piperidines as CCR6 inhibitors” (CHEMOCENTRYX, INC., priority 2021, dated 2024).

By UniProt entry, the sequences of proteins in these tests, tags left out.
UniProt P51684, whole entry: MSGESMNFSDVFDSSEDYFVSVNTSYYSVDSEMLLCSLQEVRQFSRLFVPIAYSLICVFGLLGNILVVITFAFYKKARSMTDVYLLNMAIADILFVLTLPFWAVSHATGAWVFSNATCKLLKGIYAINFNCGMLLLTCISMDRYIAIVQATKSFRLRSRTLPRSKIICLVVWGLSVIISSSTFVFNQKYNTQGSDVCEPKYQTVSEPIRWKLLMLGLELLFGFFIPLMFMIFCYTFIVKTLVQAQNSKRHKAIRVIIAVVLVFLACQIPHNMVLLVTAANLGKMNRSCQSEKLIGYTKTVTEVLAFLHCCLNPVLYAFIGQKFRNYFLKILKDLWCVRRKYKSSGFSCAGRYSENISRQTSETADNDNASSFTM

Molecular target: human CCR6 (Homo sapiens, UniProt P51684)
Test: Migration assay (chemotaxis, ChemoTX)
Settings: read-out: Potency (IC50 value in the migration assay); hCCR6-transfected Ba/F3 cells in human serum, migration to recombinant human CCL20 10 nM, 37° C. 45 minutes
Excerpt: A chemotaxis assay can be used to determine the efficacy of potential receptor antagonists at blocking the migration mediated through chemokine receptors, such as CCR6. This assay is routinely performed using the ChemoTX® microchamber system with a 5-μm pore-sized polycarbonate membrane. Chemokine receptor-expressing cells are required for such an assay. In this case, Ba/F3 cells (Palacios et al., Nature, 309:126, 1984) transfected with the gene for human CCR6 under control of the CMV promotor were used. To begin such an assay, hCCR6-transfected Ba/F3 cells are first grown for 24 hr in medium supplemented with sodium butyrate, which increases CCR6 transcription via the CMV promotor. The prepared Ba/F3 cells, are collected by centrifugation at 400×g at room temperature, then suspended at 4 million/ml in human serum. The compound being tested is serially diluted from a maximum final concentration of 1 μM (or an equivalent volume of its solvent (DMSO)) and is then added to the cell/serum mixture. Separately, recombinant human CCL20 (MIP-3α/LARC) at its EC50 concentration (10 nM) is placed in the lower wells of the ChemoTX® plate. The 5-μm (pore size) polycarbonate membrane is placed onto the plate, and 20 μL of the cell/compound mixture is transferred onto each well of the membrane. The plates are incubated at 37° C. for 45 minutes, after which the polycarbonate membranes are removed and 5 μl of the DNA-intercalating dye CyQUANT (Invitrogen, Carlsbad, CA) is added to the lower wells. The amount of fluorescence, corresponding to the number of migrated cells, is measured using a Spectrafluor Plus plate reader (TECAN, San Jose, CA).

In the case of `N#Cc1n[nH]c2ncc(-c3ccc(S(=O)(=O)N4CC[C@@H](Nc5ccc(C(F)(F)F)cn5)[C@@H](O)C4)cc3)cc12` [Compound 193], the pIC50 was > 9.00.

For `NC1CCN(c2cc(-c3ccc(S(=O)(=O)N4CC[C@@H](Nc5ccc(C(F)(F)F)cn5)[C@@H](O)C4)cc3)ccn2)CC1`, the pIC50 was > 9.00.

With `O=C1Nc2ncc(-c3ccc(S(=O)(=O)N4CC[C@@H](Nc5ccc(C(F)(F)F)cn5)[C@@H](O)C4)cc3)cc2C12CCOCC2` the pIC50 was > 9.00.

pIC50: −log10 of the molar value.
